The values that follow are results of earlier work, collected in paper PMC3664191 (Bioorganic & medicinal chemistry letters, 2013).

Sequences of proteins named here, by UniProt entry; tags and fusion partners are left off. A change or cut given only in a name is not applied to a line headed by its entry.
UniProt P49759: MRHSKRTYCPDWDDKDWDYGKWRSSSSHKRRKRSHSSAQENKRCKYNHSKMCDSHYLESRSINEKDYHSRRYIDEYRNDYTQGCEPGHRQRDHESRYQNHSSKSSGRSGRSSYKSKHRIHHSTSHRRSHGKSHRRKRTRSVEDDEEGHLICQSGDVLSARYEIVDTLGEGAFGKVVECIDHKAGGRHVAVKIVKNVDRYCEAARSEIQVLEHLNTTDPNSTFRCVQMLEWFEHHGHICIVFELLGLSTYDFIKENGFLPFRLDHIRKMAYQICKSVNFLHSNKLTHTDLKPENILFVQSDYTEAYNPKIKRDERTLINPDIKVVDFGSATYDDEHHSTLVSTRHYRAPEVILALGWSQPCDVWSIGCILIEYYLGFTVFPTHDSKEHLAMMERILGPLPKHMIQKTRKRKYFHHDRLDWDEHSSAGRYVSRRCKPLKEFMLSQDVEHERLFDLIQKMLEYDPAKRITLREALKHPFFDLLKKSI
UniProt P49761: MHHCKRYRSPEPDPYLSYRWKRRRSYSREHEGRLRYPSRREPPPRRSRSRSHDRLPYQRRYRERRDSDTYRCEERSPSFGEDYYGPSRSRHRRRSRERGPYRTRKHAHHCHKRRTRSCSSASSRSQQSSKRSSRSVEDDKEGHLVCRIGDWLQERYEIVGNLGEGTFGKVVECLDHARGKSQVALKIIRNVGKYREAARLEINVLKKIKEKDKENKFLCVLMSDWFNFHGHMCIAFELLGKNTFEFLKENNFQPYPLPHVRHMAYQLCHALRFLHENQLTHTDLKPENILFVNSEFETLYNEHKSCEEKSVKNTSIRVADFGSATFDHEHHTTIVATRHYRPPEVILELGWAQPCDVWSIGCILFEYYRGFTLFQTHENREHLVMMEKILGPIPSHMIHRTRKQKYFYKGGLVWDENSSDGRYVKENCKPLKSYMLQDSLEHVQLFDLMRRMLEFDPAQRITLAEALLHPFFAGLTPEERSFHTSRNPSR
UniProt Q9HAZ1, whole entry, species assumed: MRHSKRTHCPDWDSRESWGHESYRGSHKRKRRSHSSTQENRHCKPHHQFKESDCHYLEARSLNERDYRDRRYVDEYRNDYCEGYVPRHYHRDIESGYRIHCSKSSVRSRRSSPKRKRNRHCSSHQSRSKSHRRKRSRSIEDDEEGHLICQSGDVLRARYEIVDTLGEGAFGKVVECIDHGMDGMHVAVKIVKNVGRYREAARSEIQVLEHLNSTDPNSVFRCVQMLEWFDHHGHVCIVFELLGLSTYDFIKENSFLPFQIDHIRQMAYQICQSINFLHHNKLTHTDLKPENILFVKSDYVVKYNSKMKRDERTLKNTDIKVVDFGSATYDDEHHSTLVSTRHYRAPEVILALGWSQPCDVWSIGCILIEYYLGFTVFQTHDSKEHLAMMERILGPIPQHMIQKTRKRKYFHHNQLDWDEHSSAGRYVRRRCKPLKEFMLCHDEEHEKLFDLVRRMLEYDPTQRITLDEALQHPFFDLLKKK

Molecules are shown by their SMILES. Read-outs that look alike come from different tables or passages of the source.

One series deals with Clk1 (Homo sapiens, UniProt P49759). As to conditions: read-out: Clk1 IC50; cited from earlier work.
The target in the next series is Clk3 (Homo sapiens, UniProt P49761). The conditions noted are these: read-out: Clk3 IC50; cited from earlier work.
The target of a further series is Clk4 (Homo sapiens, UniProt Q9HAZ1). As to conditions: read-out: Clk4 IC50, cited from earlier work.

Turning to `O=C1NC(Nc2ccccc2)=N/C1=C\c1ccc2c(c1)OCO2` [Leucettine L41], on Clk1, the IC50 is 0.015 µM.
With `CCN1/C(=C/C(C)=O)Sc2ccc(OC)cc21` [TG003], the IC50 on Clk3 is 3 µM; on Clk4 (ref 15), 0.015 µM; at Clk4 (ref 39), 0.03 µM.

The IC50 is the concentration at which inhibition is half-maximal.
